Experimental data taken from ChEMBL document CHEMBL3817817, “The design strategy of selective PTP1B inhibitors over TCPTP” (Bioorg Med Chem, 2016).

Molecular target: T1, Tyrosine-protein phosphatase non-receptor type 1 (Homo sapiens, UniProt P18031)
T1 sequence (P18031 whole entry): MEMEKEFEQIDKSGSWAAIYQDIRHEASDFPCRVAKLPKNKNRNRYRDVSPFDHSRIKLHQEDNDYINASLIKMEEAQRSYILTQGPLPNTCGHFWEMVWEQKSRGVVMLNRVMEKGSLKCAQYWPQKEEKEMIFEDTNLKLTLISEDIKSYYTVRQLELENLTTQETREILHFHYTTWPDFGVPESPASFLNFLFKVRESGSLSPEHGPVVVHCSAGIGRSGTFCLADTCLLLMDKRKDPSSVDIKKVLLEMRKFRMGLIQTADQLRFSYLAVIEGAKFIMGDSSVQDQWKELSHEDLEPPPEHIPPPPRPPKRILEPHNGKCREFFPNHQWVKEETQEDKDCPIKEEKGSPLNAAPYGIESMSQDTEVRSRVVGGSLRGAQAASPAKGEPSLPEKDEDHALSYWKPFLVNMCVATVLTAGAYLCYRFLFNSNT
Assay: Inhibition of human PTP1B (1 to 288 residues) expressed in Escherichia coli BL21 (DE3) cells using p-nitrophenyl phosphate as substrate monitered every 30 secs for 15 mins by micro plate reader method

IC50: 22 nM
SMILES: CC(=O)N[C@H](Cc1ccc(N(C(=O)C(=O)O)c2ccccc2C(=O)O)c2ccccc12)C(=O)NCCCCCOc1cc2ccccc2cc1C(=O)O
